Test system: CTLL-2 cells
Assay: Clonal outgrowth and long-term propagation of CTLL-2 cells
Type: cell-based
Procedure: To further analyze the biological function of glycosylated IL-2 and non-glycosylated IL-2, an experiment analyzing clonal outgrowth rate and long-term propagation frequency of CTLL-2 cells was performed (FIG. 13). Single CTLL-2 cells were deposited into 96-well plates with a precoated feeder layer of γ-irradiated CF1-MEF (Mouse Embryonic Fibroblast) cells (Thermo Fisher, Waltham, Mass., CAT #A34180). During 19 days of growth with a single treatment of various concentrations, (0.005 nM, 0.05 nM, 0.5 nM and 5 nM), of wild type IL-2 produced from CHO cells or E. coli, the percentage of the grown colony numbers and percentage of survived colonies at the end of 19-day incubation were counted and analyzed. […] On average, the ability of glycosylated IL-2 to promote the clonal outgrowth is 2-fold higher than non-glycosylated IL-2 in the presence of 0.5 nM IL-2 concentration, which is the optimal cell culture condition for CTLL-2 cells growth. After long-term incubation (˜19 days), the colony survival rate from the glycosylated IL-2 treatment was 4-fold higher than the non-glycosylated IL-2 treatment.

glycosylated IL-2: wild type IL-2 produced from CHO cells, glycosylated
ability to promote clonal outgrowth, higher than non-glycosylated IL-2 (0.5 nM IL-2, single treatment): 2 fold
colony survival rate, higher than non-glycosylated IL-2 treatment (after long-term incubation (~19 days)): 4 fold

From patent publication US20230226152A1, “INTERLEUKIN-2 POLYPEPTIDE CONJUGATES AND METHODS OF USE THEREOF” (Ambrx, Inc., priority 2020, published 2023)
